Here are results for twelve molecules from patent publication US20190309056A1 (VIB VZW, published 2019).

Assay [1] concerns the target T1, recombinant mouse Macrophage Migration Inhibitory Factor (mouse, UniProt P34884 2-115).
T1 construct: rmMIF bought from R&D Systems; In the cell assays (RAW264.7, PECs/PEMs) the MIF is the cells' own; also called rmMIF; mouse MIF
Kind of assay: SPR (BIAcore T200), rmMIF immobilised on CM5 chip, kinetic titration, 1:1 Langmuir model. The protocol:
(§1) Surface plasmon resonance (SPR) experiments were performed on a BIAcore T200 system (GE Healthcare). Recombinant mouse MIF (rmMIF) or rhMIF (R&D systems) was immobilized on a CM5 chip (GE Healthcare). Briefly, the carboxylated dextran matrix was activated by injection of 0.2 M N-ethyl-N′-(3-[…]) carbodiimide (EDC) and 0.05 M N-hydroxysuccinimide (NHS) at a flow rate of 5 μl/min for 7 min. A rmMIF solution of 5 μg/ml prepared in coupling buffer (50 mM sodium acetate pH 4.0) was subsequently injected until 200 R.U. was immobilised. Next, the surface immobilisation was blocked by injection of 1 M ethanolamine hydrochloride for 7 min. As a reference, the surface in another flow cell was used and treated only with EDC, NHS, and ethanolamine. Data for the rmMIF-ISVD interaction were collected in the format of a kinetic titration (27). Sensorgrams for the anti-mMIF ISVDs/ISVD-constructs were collected at five different concentrations (½ serial dilution starting from 100, 150, 200 or 750 nM) plus a 0 concentration (injection of running buffer, i.e. HBS [10 mM Hepes (pH 7.5), 150 mM NaCl, 3.5 mM EDTA, 0.005% (v/v) Tween-20]) at a flow rate of 30 μl/min and a data collection rate of 10 Hz. Analyte injections were performed with association phases of 180 s and a dissociation phase of 600 s. This was followed by 5 pulses of 15 μl regeneration buffer (HBS+100 mM NaOH). Prior to data analysis, reference and zero concentration data were subtracted from the sensorgrams. The data were analyzed with a 1:1 Langmuir binding model (27). Data for the rhMIF-ISVD interaction were collected as described elsewhere (28) and analyzed with a 1:1 Langmuir binding model.

Assay [2] concerns the target T2, recombinant human Macrophage Migration Inhibitory Factor (MIF 2-115) (human, UniProt P14174 2-115).
T2 construct: rhMIF bought from R&D Systems; The background describes MIF as a homotrimer but also as monomer, dimer or higher oligomers; In the cell assays (THP-1, human PBMC) the MIF is the cells' own; also called rhMIF; human MIF
Kind of assay: SPR (BIAcore T200), rhMIF immobilised on CM5 chip, 1:1 Langmuir model. The procedure: as §1
In general terms: SPR reads the build-up and loss of mass on a sensor chip optically.

The target in assay [3] is T1, recombinant mouse Macrophage Migration …. Kind of assay: SPR (BIAcore T200), rmMIF immobilised on CM5 chip, kinetic titration, 1:1 Langmuir model; apparent KD (bivalent). The procedure:
as §1, with “Analyte injections were performed with association phases of 180 s and a dissociation phase of 600 s. This was followed by 5 pulses of 15 μl regeneration buffer (HBS+100 mM NaOH). Prior to data analysis, reference and zero concentration data were subtracted from the sensorgrams.” left out

The target is the same in assay [4]. Kind of assay: SPR (BIAcore T200), rmMIF immobilised on CM5 chip, kinetic titration, 1:1 Langmuir model; apparent value (bivalent). The protocol:
as §1, with “Analyte injections were performed with association phases of 180 s and a dissociation phase of 600 s. This was followed by 5 pulses of 15 μl regeneration buffer (HBS+100 mM NaOH). Prior to data analysis, reference and zero concentration data were subtracted from the sensorgrams.” left out

B1: anti-MIF ISVD E5 (VHH)
VHH: EVQLVESGGGLVHAGGSLRLSCAASGRTFSSYFMGWFRQAPGKAREFVANINFSGGTTVYASSVKGRFTISRDNSKNTVYLQMNSVKPEDTAVYYCVARGLTQDYDYWGQGTQVTVSS
notes: Family V. Expressed from pAX100, purified by IMAC; also called Nb E5
Take B1: in assay [1], the Kd was 11.7 nM, the koff was found to be 0.00191 s⁻¹ and the kon worked out at 163000 M⁻¹ s⁻¹. For the same molecule, in assay [2], the koff amounted to 0.00074 s⁻¹ and the association rate constant (kon) was 78000 M⁻¹ s⁻¹.

B2: anti-MIF ISVD H9 (VHH)
VHH: EVQLVESGGGLVHAGGSLRLSCAASGRTSSTYFMGWFRQAPGKAREFVANINFSGGTTVYASSVKGRFTISRDNSKNTVYLQLNSVKPEDTAVYYCSARGLNQEYDFWGQGTQVTVSS
notes: Family V. Expressed from pAX100, purified by IMAC
As for B2, in assay [1], the Kd was found to be 33 nM, the koff was determined as 0.00231 s⁻¹ and the kon worked out at 70000 M⁻¹ s⁻¹. Further, in assay [2], the koff came to 0.00257 s⁻¹ and the kon came to 32000 M⁻¹ s⁻¹.

B3: E10-E10 (VHH)
chain: EVQLVESGGGSVQAGDSLRLSCAASGRTLSNSIMGWFRQAPGKEREFVANINWSGTSRLYADSVKGRFTISRDNTKSTVYLQMNSLKPEDTAIYYCAARSSTMSATDYWGQGTQVTVSSGGGGSGGGSEVQLVESGGGSVQAGDSLRLSCAASGRTLSNSIMGWFRQAPGKEREFVANINWSGTSRLYADSVKGRFTISRDNTKSTVYLQMNSLKPEDTAIYYCAARSSTMSATDYWGQGTQVTVSS
notes: Single chain, bivalent: two E10 VHH joined by a 9GS linker; Expressed from pAX100; also called bivalent ISVD E10
For B3, the Kd in assay [3] is 3.19 nM. Also, in assay [4], the off-rate constant (koff) stood at 0.00112 s⁻¹ and the kon amounted to 351000 M⁻¹ s⁻¹.

B4: anti-MIF ISVD E10 (VHH)
VHH: EVQLVESGGGSVQAGDSLRLSCAASGRTLSNSIMGWFRQAPGKEREFVANINWSGTSRLYADSVKGRFTISRDNTKSTVYLQMNSLKPEDTAIYYCAARSSTMSATDYWGQGTQVTVSS
notes: Family VII; Monovalent llama VHH expressed in E. coli from pAX100 and purified by IMAC (His-Trap) and gel filtration; also called Nb E10; monovalent E10
B4: in assay [1], the Kd was found to be 53.1 nM, the dissociation rate constant (koff) turned out to be 0.00457 s⁻¹ and the kon turned out to be 86000 M⁻¹ s⁻¹. Besides, in assay [2], the off-rate (koff) was determined as 0.00632 s⁻¹ and the kon came to 98000 M⁻¹ s⁻¹.

B5: anti-MIF ISVD C10 (VHH)
VHH: EVQLVESGGGLVQAGGSLRLSCAASGRTSSIVAIGWFRQAPGKEREFVSNIGWKFGSTVYVDSVKGRFTISKDNAKNTVYLQMNSLKPEDTAVYRCAARSDGRVYDSWGQGTQVTVSS
notes: Family II; Expressed from pAX100, purified by IMAC
For B5, in assay [1], the Kd stood at 15.5 nM, the off-rate (koff) is 0.00253 s⁻¹ and the kon came to 163000 M⁻¹ s⁻¹. Moreover, in assay [2], the dissociation rate constant (koff) is 0.00161 s⁻¹ and the on-rate (kon) is 38000 M⁻¹ s⁻¹.

B6: anti-MIF ISVD H5 (VHH)
VHH: EVQLVESGGGLVQPGGSLRLSCVASGFTFRTYAMSWVRQAPGKGSEWVSTINNGGGVTGYADSVEGRFTISRDNAKNTLYLQMNSLKPEDTAVYYCAKGTSRGQGTQVTVSS
notes: Family IV; Expressed from pAX100, purified by IMAC
For the molecule B6, in assay [1], the Kd is 25.6 nM, the koff turned out to be 0.00297 s⁻¹ and the on-rate constant (kon) was determined as 116000 M⁻¹ s⁻¹. Moreover, in assay [2], the koff stood at 0.00048 s⁻¹ and the kon was found to be 17000 M⁻¹ s⁻¹.

B7: anti-MIF ISVD D4 (VHH)
VHH: KVQLVESGGGLVQDGGSLRLSCAASGRTASIQVMGWFRQAPGKEREFVGNIGWNYGLTLYPDSVKGRFTISRDNAKNTVYLQMNNLKPEDTAVYYCAARIGTTTYDYWGQGTQVTVSS
notes: Family III; Expressed from pAX100, purified by IMAC
In the case of B7, in assay [1], the Kd came to 27.7 nM, the koff came to 0.00274 s⁻¹ and the kon was found to be 99000 M⁻¹ s⁻¹. For the same molecule, in assay [2], the koff came out at 0.00153 s⁻¹ and the kon came to 44000 M⁻¹ s⁻¹.

B8: anti-MIF ISVD D2 (VHH)
VHH: EVQLVESGGGLVQDGGSLRLSCAASGRTASIHTMGWFRQAPGQERGFVGNIGWNYGLTLYADSVKGRFTISRDNAKNTVYLQMNNLKPEDTAVYYCAARIGTTPYDYWGQGTQVTVSS
notes: as for B7
For B8, in assay [1], the Kd is 12.5 nM, the koff amounted to 0.00189 s⁻¹ and the association rate constant (kon) is 151000 M⁻¹ s⁻¹. Moreover, in assay [2], the koff came to 0.00124 s⁻¹ and the kon worked out at 75000 M⁻¹ s⁻¹.

B9: anti-MIF ISVD A2 (VHH)
VHH: EVQLVESGGGLVQDGGSLRLSCAASGRTASIQVMGWFRQAPGKEREFVGNIGWNYGLTLYADPVKGRFTISRDNAKNTVYLQMNNLKPEDTAVYYCAARIGTITYDYWGQGTQVTVSS
notes: as for B7
B9: in assay [1], the Kd was determined as 14 nM, the koff came out at 0.002 s⁻¹ and the kon was 143000 M⁻¹ s⁻¹. In assay [2], the koff is 0.00092 s⁻¹ and the kon stood at 311000 M⁻¹ s⁻¹.

B10: anti-MIF ISVD F10 (VHH)
VHH: EVQLVESGGGLVQDGGSLRLSCAASGRTASIQVMGWFRQAPGKEREFVGNIGWNYGLTLYPDSVKGRFTISRGNAKNAVYLQMNNLKPEDTAVYYCAARIGTTTYDYWGQGTQVTVSS
notes: as for B7
On to B10, for which, in assay [1], the Kd stood at 228 nM, the koff was determined as 0.00434 s⁻¹ and the kon is 19000 M⁻¹ s⁻¹.

B11: anti-MIF ISVD B5 (VHH)
VHH: EVQLVESGGGLVQAGGSLRLSCAASGRSFSNYIMGWFRQAPGKEREFVANISWNYGTTFYADSVKGRFTISGDSAKNTVYLQMTSLKPEDTAVYYCAARPVRGGRNFDYWGQGTQVTVSS
notes: Family I. Expressed from pAX100, purified by IMAC
As for B11, in assay [1], the Kd came out at 38.2 nM, the koff came out at 0.00542 s⁻¹ and the kon was found to be 142000 M⁻¹ s⁻¹. Further, in assay [2], the koff was determined as 0.00154 s⁻¹ and the association rate constant (kon) was determined as 41000 M⁻¹ s⁻¹.

B12: anti-MIF ISVD D12 (VHH)
VHH: EVQLVESGGGLVQAGGSLRLSCAASGRTISSYIVGWFRQAPGKEREFVANIGWSGSMPLYADSVKGRFTIFRDNAKNTVYLEMNKLKPEDTAVYYCAARGAGQLTNDYWGQGTQVTVSS
notes: Family VI; Expressed from pAX100, purified by IMAC
As to B12, in assay [1], the Kd amounted to 85.9 nM, the koff was 0.00511 s⁻¹ and the kon worked out at 59000 M⁻¹ s⁻¹. In assay [2], the koff came out at 0.00298 s⁻¹ and the kon was found to be 18000 M⁻¹ s⁻¹.

Usually koff stands for the first-order rate constant of dissociation. What is called kon is a measure of how fast the partners come together.
